Earlier results in publication PMC4216217 (Journal of Medicinal Chemistry, 2014).

Target: D3 receptor
Conditions: read-out: Ki, D3 receptor; cited from earlier work

**Q.** With `CCCN(CC[C@]1(O)C[C@@H](NC(=O)c2ccc3ccccc3c2)C1)[C@H]1CCc2nc(N)sc2C1` [compound 2] as the compound, how does the Ki read?
**A.** < 1 nM
